A selection: hits, their analogues and other compounds. The true share with any hit is near 2.8%.
PglD inh – inhibitors of Campylobacter jejuni PglD acetyltransferase | purified PglD enzyme, DTNB colorimetric CoA detection | inhibition, % at 12.5 µM | hit rate 0.098% among 360,000 | AID 602405; in the data active = inhibition above about 16%, passing the limit was not always enough
Statin myotox sup – protects C2C12 myotubes from simvastatin toxicity | ATP luminescence, 48 h; scaled: DMSO 0, geranylgeraniol control 100 | rescue of ATP level, % at 7.49 µM | hit rate 0.78% among 330,000;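 active = mean ATP rescue above about 67%, or every replicate alone reaching that limit, limit read from the data, passing the limit was not always enough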;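 note: myotubes were challenged with 10 µM simvastatin during compound exposure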
esBAF inh – blocks esBAF chromatin remodeling in mouse ES cells; Bmi1-luciferase knock-in reporter, 24 h; 100% = twice the neutral-well signal; reporter increase, % at 12.5 µM; hit rate 2% among 350,000; in the data active = activation above about 40%;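 note: 0% = median of the plate's neutral control wells and 100% = double that signal; a rise in the Bmi1 reporter signal indicates esBAF inhibition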
E-selectin induc – E-selectin induction on HUVECs; HUVEC E-selectin immunofluorescence imaging; normalized: neutral wells 0, TNF-alpha wells 100; hit rate 0.37% among 260,000; activation, % at 7.58 µM; P16581; AID 686992;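 active = mean E-selectin-positive cell signal at least 10% of the positive control, reached in at least 60% of replicates, without over 20% cell loss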
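Test system – human umbilical vein endothelial cells (HUVEC), E-selectin induction · Input – 3,000 HUVEC seeded per well · Buffer or medium – EGM-2, gelatin · Compound dosing – single-point compound dose · Detection – immunofluorescence imaging · Measure – percent E-selectin-positive cells · Controls – TNF-alpha high, DMSO low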
PGC1a acetyl inh – modulators of PGC1a acetylation; hit rate 0.17% among 350,000; U2OS PGC1a acetylation, AlphaScreen anti-acetyl-lysine; with virally co-expressed GCN5 acetyltransferase; inhibition, % at 15.6 µM; AID 651687;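 active = every replicate shows inhibition of at least 40%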;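 note: 0% = neutral control wells and 100% = positive control wells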
Yeast UUG start – modulators of yeast start codon fidelity, primary screen, whole organism, S. cerevisiae, single point, plate reader; S. cerevisiae UUG-firefly luciferase reporter, luminescence/redox ratio; activity score, % at 18.7 µM; 0.13% of 350,000 active; AID 602363, 2012;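 active = replicate mean at a twofold rise or more, about +100% in these data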;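 also: firefly luciferase made from a UUG start codon reports start codon fidelity; reporter light over untreated wells divided by growth signal over untreated wells; some hits fall short of that in this replicate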
Active calls of the source: *.

What do the screens show for `Brc1ccc(-c2cnc(-c3cccs3)o2)cc1`?
PglD inh: -2.8; esBAF inh: 66.8*; Yeast UUG start: -12.8

What do the screens show for `CN(C)c1ccc(-c2nnc(-c3cccs3)o2)cc1`?
PGC1a acetyl inh: -9.3

What do the screens show for `C[C@H](CO)N1C[C@H](C)[C@@H](CN(C)C(=O)c2cnccn2)Oc2ncc(/C=C/c3ccccc3)cc2C1=O`?
PglD inh: 0.9; Statin myotox sup: 13.2; esBAF inh: -2.1; E-selectin induc: 0.0; PGC1a acetyl inh: 0.6; Yeast UUG start: 11.4

Results for COc1ccc(S(=O)(=O)N(C)C[C@@H]2Oc3ccc(NC(=O)CCC(F)(F)F)cc3C(=O)N([C@H](C)CO)C[C@@H]2C)cc1 ?
PglD inh: -0.4; Statin myotox sup: -5.4; esBAF inh: 4.0; E-selectin induc: 0.0; PGC1a acetyl inh: -5.5; Yeast UUG start: 0.0

What do the screens show for `S=C(NCc1ccco1)N1CCN(C(c2ccccc2)c2ccccc2)CC1`?
PglD inh: -5.4; Statin myotox sup: 86.3*; esBAF inh: -6.1; PGC1a acetyl inh: -3.7; Yeast UUG start: -23.6

How did CC(C)CNC(=S)N1CCN(C(c2ccccc2)c2ccccc2)CC1 do in these assays?
E-selectin induc: -0.2

Results for O=C(Nc1ccccc1C(=O)N1CCOCC1)c1ccc(F)cc1 ?
PglD inh: -2.5; Statin myotox sup: 86.2*; esBAF inh: 0.1; PGC1a acetyl inh: 43.2; Yeast UUG start: -11.8

What do the screens show for `COc1ccc(C#Cc2cnc3c(c2)C(=O)N([C@H](C)CO)C[C@H](C)[C@H](CN(C)S(=O)(=O)c2cccc(F)c2)O3)cc1OC`?
PglD inh: 1.9; Statin myotox sup: -1.0; esBAF inh: -2.0; E-selectin induc: -0.2; PGC1a acetyl inh: -123.0; Yeast UUG start: -1.9

How did Cc1cc(C)nc(-n2nc(C)c3c(C(F)F)cc(C)nc32)n1 do in these assays?
PglD inh: -5.0; Statin myotox sup: 115.2*; esBAF inh: -7.9; PGC1a acetyl inh: 5.8; Yeast UUG start: -23.4

Results for Cc1cc(C)nc(-n2nc(C)c3c(C(F)(F)F)cc(=O)[nH]c32)n1 ?
PglD inh: -1.3; PGC1a acetyl inh: 2.8; Yeast UUG start: -26.0

For convenience, part of the list above.
What do the screens show for `Brc1ccc(-c2cnc(-c3cccs3)o2)cc1`?
PglD inh: -2.8; esBAF inh: 66.8*; Yeast UUG start: -12.8

What do the screens show for `CN(C)c1ccc(-c2nnc(-c3cccs3)o2)cc1`?
PGC1a acetyl inh: -9.3

What do the screens show for `C[C@H](CO)N1C[C@H](C)[C@@H](CN(C)C(=O)c2cnccn2)Oc2ncc(/C=C/c3ccccc3)cc2C1=O`?
PglD inh: 0.9; Statin myotox sup: 13.2; esBAF inh: -2.1; E-selectin induc: 0.0; PGC1a acetyl inh: 0.6; Yeast UUG start: 11.4

More records
How did CCC(=O)Nc1ccc2c(c1)OC[C@H](C)N(C(=O)NC(C)C)C[C@H](C)[C@@H](OC)CN(C)C2=O do in these assays?
E-selectin induc: -0.1; PGC1a acetyl inh: -1.5

Results for CCOC(=O)c1sc(NC(=O)Nc2ccc(Cl)cc2)cc1C ?
PglD inh: -6.8; PGC1a acetyl inh: -14.2; Yeast UUG start: -31.6

What do the screens show for `CCOC(=O)c1cncc(NC(=O)c2ccccc2)c1`?
PglD inh: -0.3; Statin myotox sup: 95.4*; esBAF inh: -4.9; PGC1a acetyl inh: -1.8; Yeast UUG start: -12.5

What do the screens show for `CCOC(=O)c1sc(NC(=O)C(C)(C)C)cc1C`?
PglD inh: 0.4; Statin myotox sup: -2.6; esBAF inh: 57.3*; E-selectin induc: -1.7; PGC1a acetyl inh: 11.4; Yeast UUG start: -19.9

How did CCOC(=O)c1sc(=NC(=O)c2ccccc2)n(C)c1C do in these assays?
Statin myotox sup: 4.0; esBAF inh: 71.4*; E-selectin induc: 0.4; PGC1a acetyl inh: -7.6; Yeast UUG start: -16.6

What do the screens show for `CCOC(=O)c1sc(NC(=O)c2c(C)nn(Cc3ccccc3)c2C)cc1C`?
PglD inh: 5.4; Statin myotox sup: 102.4*; esBAF inh: 20.0; PGC1a acetyl inh: 5.8; Yeast UUG start: -13.8

What do the screens show for `CC(C)NC(=O)N(C)C[C@H]1Oc2ccc(NS(C)(=O)=O)cc2C(=O)N([C@@H](C)CO)C[C@H]1C`?
PglD inh: 2.1; Statin myotox sup: 16.7; esBAF inh: -3.1; E-selectin induc: 0.2; PGC1a acetyl inh: 15.5; Yeast UUG start: 3.9

How did C[C@H]1CN([C@@H](C)CO)C(=O)Cc2cc(NS(=O)(=O)c3cn(C)cn3)ccc2O[C@H]1CN(C)Cc1ccc2c(c1)OCO2 do in these assays?
PglD inh: -0.2; Statin myotox sup: -12.1; esBAF inh: -4.0; E-selectin induc: -0.2; PGC1a acetyl inh: 4.6; Yeast UUG start: -4.3

Results for C[C@H](CO)N1C[C@H](C)[C@H](CN(C)Cc2ccccc2)Oc2ccc(NC(=O)Cn3cnnn3)cc2CC1=O ?
PglD inh: 1.0; Statin myotox sup: 2.4; esBAF inh: 2.7; E-selectin induc: -0.1; Yeast UUG start: -0.4

How did C[C@H](CO)N1C[C@H](C)[C@@H](CN(C)C)Oc2ccc(NC(=O)NC3CCCCC3)cc2CC1=O do in these assays?
PglD inh: 0.2; Statin myotox sup: 4.4; esBAF inh: -7.9; E-selectin induc: -2.0; PGC1a acetyl inh: -16.4; Yeast UUG start: -6.7

Results for CCOC(=O)c1sc(NC(=O)c2ccc(Cl)s2)cc1C ?
PglD inh: 2.8; Statin myotox sup: -24.2; esBAF inh: 61.5*; PGC1a acetyl inh: -3.4; Yeast UUG start: -12.4

What do the screens show for `CCOC(=O)c1sc(NC(=O)c2ccccc2)cc1C`?
PglD inh: -0.2; Statin myotox sup: -128.9; esBAF inh: 57.3*; PGC1a acetyl inh: -17.5; Yeast UUG start: -12.1

How did COc1ccc(S(=O)(=O)Nc2ccc3c(c2)C(=O)N([C@H](C)CO)C[C@@H](C)[C@@H](CN(C)C(=O)NC(C)C)OCCCC[C@H](C)O3)cc1 do in these assays?
PglD inh: -1.5; esBAF inh: 1.6; E-selectin induc: -0.9; PGC1a acetyl inh: 3.0; Yeast UUG start: -13.3

Results for N/C(=N\OC(=O)c1ccc(F)cc1)c1ccc(Br)cc1 ?
PglD inh: -3.6; Statin myotox sup: -8.1; esBAF inh: 56.2*; E-selectin induc: 0.0; PGC1a acetyl inh: -8.6; Yeast UUG start: 2.2

How did CCC(=O)N1C[C@H]2[C@@H](c3ccccc31)[C@@H](CO)N2Cc1cc(F)ccc1F do in these assays?
PglD inh: -0.2; Statin myotox sup: 24.2; esBAF inh: -8.9; E-selectin induc: 0.0; PGC1a acetyl inh: -6.9; Yeast UUG start: -5.5

Results for C#CC(=O)N(c1cc(OC)ccc1OC)C(C(=O)NC1CCCC1)c1cccs1 (stereo not drawn) ?
PglD inh: -4.7; Statin myotox sup: inactive; esBAF inh: -50.1; PGC1a acetyl inh: 88.2*; Yeast UUG start: -4.2

How did COc1ccc(N(C(=O)c2ccco2)C(C(=O)NC2CCCCC2)c2cccs2)cc1OC (stereo not drawn) do in these assays?
Statin myotox sup: 18.6; esBAF inh: 2.7; PGC1a acetyl inh: -8.7

What do the screens show for `C#CC(=O)N(c1ccc(OC)cc1OC)C(C(=O)NC1CCCC1)c1cccs1` (stereo not drawn)?
Statin myotox sup: -366.4; esBAF inh: 48.9; PGC1a acetyl inh: 94.5*

Results for CO[C@H]1CN(C)C(=O)c2ccc(NC(=O)C3CC3)cc2OC[C@H](C)NC[C@@H]1C ?
E-selectin induc: -0.2; PGC1a acetyl inh: 0.1

How did CCS(=O)(=O)N1CCN(S(=O)(=O)c2ccc(F)cc2)CC1 do in these assays?
esBAF inh: -6.8
